Measurements reported in patent US20240218342A1, “SITE-SPECIFIC GLYCAN REMODELING OF LYSOSOMAL ENZYMES AND APPLICATIONS THEREOF” (priority 2021, published 2024).
pKd: −log10 of the molar value.

Chains of the proteins cited; added tags and fusions are not shown. Residues count along the entry.
UniProt P11717, 41-2491: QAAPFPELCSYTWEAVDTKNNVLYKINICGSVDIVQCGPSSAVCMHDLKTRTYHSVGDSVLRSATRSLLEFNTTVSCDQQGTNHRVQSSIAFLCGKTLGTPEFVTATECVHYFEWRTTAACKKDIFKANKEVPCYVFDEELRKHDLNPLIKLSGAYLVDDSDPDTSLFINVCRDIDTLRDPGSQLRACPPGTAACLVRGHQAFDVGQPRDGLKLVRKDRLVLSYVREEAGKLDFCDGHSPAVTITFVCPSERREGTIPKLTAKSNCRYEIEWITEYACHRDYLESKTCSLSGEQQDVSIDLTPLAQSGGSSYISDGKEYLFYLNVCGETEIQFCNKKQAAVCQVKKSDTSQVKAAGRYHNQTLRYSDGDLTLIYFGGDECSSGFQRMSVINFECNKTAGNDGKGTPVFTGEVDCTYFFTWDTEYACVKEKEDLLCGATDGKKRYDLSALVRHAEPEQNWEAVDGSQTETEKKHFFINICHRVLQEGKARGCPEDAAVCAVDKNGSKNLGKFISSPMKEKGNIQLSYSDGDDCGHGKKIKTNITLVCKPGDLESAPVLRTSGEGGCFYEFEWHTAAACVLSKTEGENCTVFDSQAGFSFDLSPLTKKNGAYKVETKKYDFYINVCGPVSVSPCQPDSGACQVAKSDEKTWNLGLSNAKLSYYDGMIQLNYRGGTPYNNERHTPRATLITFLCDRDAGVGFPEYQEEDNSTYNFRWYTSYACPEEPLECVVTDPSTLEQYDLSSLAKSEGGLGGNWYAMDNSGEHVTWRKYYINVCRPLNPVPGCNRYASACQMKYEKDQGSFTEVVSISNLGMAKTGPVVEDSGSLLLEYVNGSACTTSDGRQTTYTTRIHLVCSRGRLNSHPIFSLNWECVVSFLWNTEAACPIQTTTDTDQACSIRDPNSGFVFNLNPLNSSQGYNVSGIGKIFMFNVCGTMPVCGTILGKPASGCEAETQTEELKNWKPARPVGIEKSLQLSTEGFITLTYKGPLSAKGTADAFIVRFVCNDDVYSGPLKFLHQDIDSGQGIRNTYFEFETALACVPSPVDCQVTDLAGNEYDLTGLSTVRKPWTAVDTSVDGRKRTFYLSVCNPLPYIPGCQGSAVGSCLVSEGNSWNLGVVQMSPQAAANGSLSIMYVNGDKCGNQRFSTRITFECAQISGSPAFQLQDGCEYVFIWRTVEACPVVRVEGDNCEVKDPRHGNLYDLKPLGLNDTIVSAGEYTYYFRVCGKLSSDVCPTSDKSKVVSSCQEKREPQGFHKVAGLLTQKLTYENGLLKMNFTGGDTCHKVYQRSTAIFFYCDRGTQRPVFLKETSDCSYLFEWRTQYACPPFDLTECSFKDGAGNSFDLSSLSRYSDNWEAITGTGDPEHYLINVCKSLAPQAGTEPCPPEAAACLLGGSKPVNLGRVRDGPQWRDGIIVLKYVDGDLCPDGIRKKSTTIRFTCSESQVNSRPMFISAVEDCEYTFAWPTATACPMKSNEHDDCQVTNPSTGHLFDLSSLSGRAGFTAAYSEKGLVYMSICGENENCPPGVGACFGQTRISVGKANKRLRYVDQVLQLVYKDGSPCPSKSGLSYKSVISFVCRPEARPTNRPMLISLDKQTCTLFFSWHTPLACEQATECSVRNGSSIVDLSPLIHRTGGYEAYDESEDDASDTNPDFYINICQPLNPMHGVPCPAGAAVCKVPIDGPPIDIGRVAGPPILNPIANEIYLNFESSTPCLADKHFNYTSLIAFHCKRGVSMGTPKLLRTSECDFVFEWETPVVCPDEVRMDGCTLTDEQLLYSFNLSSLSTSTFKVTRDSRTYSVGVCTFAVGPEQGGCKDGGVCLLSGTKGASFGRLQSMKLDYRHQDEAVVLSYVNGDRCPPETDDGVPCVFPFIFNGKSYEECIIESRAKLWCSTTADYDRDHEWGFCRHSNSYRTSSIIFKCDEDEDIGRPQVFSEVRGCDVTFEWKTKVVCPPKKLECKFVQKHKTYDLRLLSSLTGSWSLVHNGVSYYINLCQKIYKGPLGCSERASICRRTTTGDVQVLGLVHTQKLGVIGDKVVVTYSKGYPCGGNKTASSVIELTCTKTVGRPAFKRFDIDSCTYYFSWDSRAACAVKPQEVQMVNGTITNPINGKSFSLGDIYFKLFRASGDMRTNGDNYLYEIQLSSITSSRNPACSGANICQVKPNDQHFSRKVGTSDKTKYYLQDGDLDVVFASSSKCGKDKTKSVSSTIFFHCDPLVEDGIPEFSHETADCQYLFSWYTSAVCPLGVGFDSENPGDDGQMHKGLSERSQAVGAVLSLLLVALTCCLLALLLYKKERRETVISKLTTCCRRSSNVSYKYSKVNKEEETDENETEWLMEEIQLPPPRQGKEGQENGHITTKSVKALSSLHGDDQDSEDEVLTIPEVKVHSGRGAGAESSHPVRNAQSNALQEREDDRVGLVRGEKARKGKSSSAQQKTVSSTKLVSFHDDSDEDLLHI

Target: Recombinant human IGF-II R (CI-MPR) (Homo sapiens, UniProt P11717)
Assay: SPR binding to immobilized CI-MPR
Conditions: 25° C., three independent experiments

pKd: 7.85
Substance: Lumizyme: recombinant human acid α-glucosidase (alglucosidase alfa, Genzyme), therapeutic lysosomal enzyme for Pompe disease
